The values that follow come from patent US6602880B2, “3-phenyl-3,7-diazabicyclo[3.3.1] nonane compounds, process for preparing them, pharmaceutical compositions containing them and use thereof to inhibit cardiac arrhythmia” (priority 2001, dated 2003).

The chains behind the UniProt entries cited, without tags or fusion partners. Residues count along the entry.
UniProt A0A8I3N8W8, 1-676: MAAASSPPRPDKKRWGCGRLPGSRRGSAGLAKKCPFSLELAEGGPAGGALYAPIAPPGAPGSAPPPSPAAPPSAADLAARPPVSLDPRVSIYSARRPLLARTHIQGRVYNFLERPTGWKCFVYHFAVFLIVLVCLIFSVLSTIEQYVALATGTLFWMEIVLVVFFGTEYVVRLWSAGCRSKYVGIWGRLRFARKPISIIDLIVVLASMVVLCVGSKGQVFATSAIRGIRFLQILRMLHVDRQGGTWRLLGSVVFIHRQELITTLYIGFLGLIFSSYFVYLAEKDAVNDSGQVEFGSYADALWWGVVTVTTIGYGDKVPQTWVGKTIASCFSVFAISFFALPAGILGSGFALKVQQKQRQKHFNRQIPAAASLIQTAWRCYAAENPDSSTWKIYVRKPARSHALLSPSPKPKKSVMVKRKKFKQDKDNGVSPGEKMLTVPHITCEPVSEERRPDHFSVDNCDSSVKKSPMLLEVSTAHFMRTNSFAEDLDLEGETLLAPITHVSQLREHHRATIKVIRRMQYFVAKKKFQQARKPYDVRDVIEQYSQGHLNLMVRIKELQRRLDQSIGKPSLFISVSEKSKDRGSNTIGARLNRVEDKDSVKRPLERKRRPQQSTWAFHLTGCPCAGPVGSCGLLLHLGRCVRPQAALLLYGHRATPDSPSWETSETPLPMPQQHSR
UniProt Q12809, whole entry: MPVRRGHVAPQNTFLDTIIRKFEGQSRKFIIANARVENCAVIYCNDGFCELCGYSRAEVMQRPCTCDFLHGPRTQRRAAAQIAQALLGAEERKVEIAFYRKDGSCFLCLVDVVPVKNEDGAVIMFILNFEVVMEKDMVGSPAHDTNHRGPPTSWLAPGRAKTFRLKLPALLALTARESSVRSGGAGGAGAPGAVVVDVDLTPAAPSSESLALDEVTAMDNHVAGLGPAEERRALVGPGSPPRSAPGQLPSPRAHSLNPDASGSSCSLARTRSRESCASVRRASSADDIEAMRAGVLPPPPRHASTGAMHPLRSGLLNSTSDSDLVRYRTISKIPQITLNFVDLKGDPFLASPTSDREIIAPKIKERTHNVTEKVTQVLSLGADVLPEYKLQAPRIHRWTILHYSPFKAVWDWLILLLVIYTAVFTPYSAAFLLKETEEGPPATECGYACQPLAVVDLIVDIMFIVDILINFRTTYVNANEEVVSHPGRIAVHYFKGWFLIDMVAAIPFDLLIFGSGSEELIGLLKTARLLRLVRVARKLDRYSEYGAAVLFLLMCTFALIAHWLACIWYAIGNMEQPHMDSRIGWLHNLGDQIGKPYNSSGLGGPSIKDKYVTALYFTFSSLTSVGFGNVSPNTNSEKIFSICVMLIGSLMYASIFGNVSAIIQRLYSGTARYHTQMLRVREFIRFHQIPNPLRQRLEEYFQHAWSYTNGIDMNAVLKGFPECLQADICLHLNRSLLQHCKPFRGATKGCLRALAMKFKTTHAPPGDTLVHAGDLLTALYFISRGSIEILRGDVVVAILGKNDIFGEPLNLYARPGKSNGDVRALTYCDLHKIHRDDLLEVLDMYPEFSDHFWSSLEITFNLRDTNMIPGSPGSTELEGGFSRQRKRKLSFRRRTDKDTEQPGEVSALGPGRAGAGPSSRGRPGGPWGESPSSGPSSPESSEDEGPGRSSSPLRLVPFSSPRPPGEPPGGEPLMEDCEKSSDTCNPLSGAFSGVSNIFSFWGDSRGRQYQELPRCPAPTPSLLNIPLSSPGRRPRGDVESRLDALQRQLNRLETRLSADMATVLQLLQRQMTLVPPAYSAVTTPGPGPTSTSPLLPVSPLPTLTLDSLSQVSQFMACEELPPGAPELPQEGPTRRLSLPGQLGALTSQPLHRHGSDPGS

Molecules are shown by their SMILES.

The subject of series [1] is isolated papillary muscle of the right ventricle of guinea pigs. As to the kind of experiment: In vitro functional refractory period on electrically stimulated papillary muscles from guinea-pig hearts. As to conditions: concentration prolonging FRP by 12 milliseconds; stimulation 3 Hz; 20 minutes after addition; tested form: hydrogen tartrate.
Another series concerns the target iKs (Canis lupus familiaris, UniProt A0A8I3N8W8). Nature of the series: Blocking action on slow delayed rectifier potassium current iKs, whole-cell patch-clamp on dog cardiac muscle cells. The series is classed as cell-based. As to conditions: read-out: IC50 % - iKs; dog left ventricle cardiac muscle cells; 1 μM nisoldipine and 2 μM E-4031 added; holding potential -40 mV; tested form: hydrogen tartrate. The procedure: The iKs can be measured selectively in the manner described below: the hearts are quickly removed from anaesthetised dogs and a muscle section from the left ventricle is perfused with collagenase-containing solution via an arterial vessel. The well-dissociated tissue is comminuted and the individualised cardiac muscle cells are investigated electrophysiologically using the “whole-cell patch-clamp” method (cf. O. P. […] The iKs is then determined using the current amplitude immediately after a 5-second pulse protocol of -40 mV holding potential at most +50 mV depolarisation. The iKr (HERG) can be measured selectively in the manner stated below: to measure the iKr, a cell line (human embryonal kidney cells, HEK293; see e.g. American Tissue Culture Collection (=ATCC) No.: CRL-1573) is used, which is stably transfected with the gene for the iKr (HERG) (cf. Z. Zhou et al., Biophysical Journal 74(1) (1998) 230-241). […] The iKr is determined using the current amplitude at -40 mV holding potential immediately after a 500 ms pulse protocol of -75 mV holding potential at most +10 mV depolarisation. That substance concentration at which 50% of the maximum current is blocked (IC50 %) is determined from the inhibitions of the corresponding current at different substance concentrations.
In general terms: Patch clamp records ionic current or voltage across a cell membrane.

The target in a further series is iKr (HERG) (Homo sapiens, UniProt Q12809). As to the kind of experiment: Blocking action on rapid delayed rectifier potassium current iKr (HERG), HEK293 cells stably transfected. As to conditions: read-out: IC50 % - iKr; HEK293 cells stably transfected with HERG; tested form: hydrogen tartrate. As for the experimental part: The iKr (HERG) can be measured selectively in the manner stated below: to measure the iKr, a cell line (human embryonal kidney cells, HEK293; see e.g. American Tissue Culture Collection (=ATCC) No.: CRL-1573) is used, which is stably transfected with the gene for the iKr (HERG) (cf. Z. Zhou et al., Biophysical Journal 74(1) (1998) 230-241). […] The iKr is determined using the current amplitude at −40 mV holding potential immediately after a 500 ms pulse protocol of −75 mV holding potential at most +10 mV depolarisation. That substance concentration at which 50% of the maximum current is blocked (IC50 %) is determined from the inhibitions of the corresponding current at different substance concentrations.

For the compound `CCCCN1CC2CN(c3ccc(C(C)=O)cc3)CC(C1)C21CCCC1`, the “Antiarrhythmic action FRP-EC+12 ms” value in series [1] was determined as 0.6 µmol/L. Also, the IC50 (usually the concentration needed to halve the response being measured) on iKs amounted to 700 nM; at iKr (HERG) it was 90 nM.
